Results: PubChem BioAssay (NCI)
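Results reflect a 48-hour exposure of cells in 96-well plates to compound at five concentrations. GI50 = concentration required for 50% inhibition of growth.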

Experiments:
Test in all cases: NCI-60 cell line screen, 48 h; in the data active = GI50 below about 0.43 µM; inactive = the rest
786-0 renal = system: 786-0 renal
A498 renal = system: A498 renal
A549 NSCLC = system: A549 NSCLC
ACHN renal = system: ACHN renal
BT-549 breast = system: BT-549 breast
CAKI-1 renal = system: CAKI-1 renal
CCRF-CEM leukemia = system: CCRF-CEM leukemia
COLO 205 colon = system: COLO 205 colon
DU-145 prostate = system: DU-145 prostate
EKVX NSCLC = system: EKVX NSCLC
HCC-2998 colon = system: HCC-2998 colon
HCT-116 colon = system: HCT-116 colon
HCT-15 colon = system: HCT-15 colon
HOP-62 NSCLC = system: HOP-62 NSCLC
HOP-92 NSCLC = system: HOP-92 NSCLC
HS 578T breast = system: HS 578T breast
HT29 colon = system: HT29 colon
IGROV1 ovarian = system: IGROV1 ovarian
K-562 leukemia = system: K-562 leukemia
KM12 colon = system: KM12 colon
LOX IMVI melanoma = system: LOX IMVI melanoma
M14 melanoma = system: M14 melanoma
MALME-3M melanoma = system: MALME-3M melanoma
MCF7 breast = system: MCF7 breast
MDA-MB-231 breast = system: MDA-MB-231 breast
MOLT-4 leukemia = system: MOLT-4 leukemia
NCI-H226 lung = system: NCI-H226 lung
NCI-H23 lung = system: NCI-H23 lung
NCI-H322M lung = system: NCI-H322M lung
NCI-H460 lung = system: NCI-H460 lung
NCI-H522 lung = system: NCI-H522 lung
NCI/ADR-RES ovarian = system: NCI/ADR-RES ovarian
OVCAR-3 ovarian = system: OVCAR-3 ovarian
OVCAR-4 ovarian = system: OVCAR-4 ovarian
OVCAR-5 ovarian = system: OVCAR-5 ovarian
OVCAR-8 ovarian = system: OVCAR-8 ovarian
PC-3 prostate = system: PC-3 prostate
SF-268 CNS = system: SF-268 CNS
SF-295 CNS = system: SF-295 CNS
SK-MEL-2 melanoma = system: SK-MEL-2 melanoma
SK-MEL-28 melanoma = system: SK-MEL-28 melanoma
SK-MEL-5 melanoma = system: SK-MEL-5 melanoma
SK-OV-3 ovarian = system: SK-OV-3 ovarian
SN12C renal = system: SN12C renal
SNB-19 CNS = system: SNB-19 CNS
SW-620 colon = system: SW-620 colon
T-47D breast = system: T-47D breast
TK-10 renal = system: TK-10 renal
U251 CNS = system: U251 CNS
UACC-257 melanoma = system: UACC-257 melanoma
UACC-62 melanoma = system: UACC-62 melanoma
UO-31 renal = system: UO-31 renal

Measured: GI50

CN(C)CCn1c(Cn2nc3ccccc3n2)nc2cc(Cl)ccc21
inactive: 786-0 renal 85.7 µM | A498 renal 28.2 µM | A549 NSCLC 53.3 µM | ACHN renal 65.7 µM | BT-549 breast 63.5 µM | CAKI-1 renal 85.1 µM | CCRF-CEM leukemia 31.6 µM | COLO 205 colon 43.8 µM | DU-145 prostate > 100 µM | EKVX NSCLC 75.8 µM | HCC-2998 colon 27.1 µM | HCT-116 colon 61 µM | HCT-15 colon > 100 µM | HOP-62 NSCLC > 100 µM | HOP-92 NSCLC 30.3 µM | HS 578T breast > 100 µM | HT29 colon 91.8 µM | IGROV1 ovarian > 100 µM | K-562 leukemia 35.9 µM | KM12 colon 47.9 µM | LOX IMVI melanoma 89.7 µM | M14 melanoma 37.1 µM | MALME-3M melanoma 29.8 µM | MCF7 breast 48.6 µM | MDA-MB-231 breast > 100 µM | MOLT-4 leukemia 19.9 µM | NCI-H226 lung > 100 µM | NCI-H23 lung 55.3 µM | NCI-H322M lung > 100 µM | NCI-H460 lung > 100 µM | NCI-H522 lung 27.9 µM | NCI/ADR-RES ovarian 60.5 µM | OVCAR-3 ovarian > 100 µM | OVCAR-4 ovarian 36.6 µM | OVCAR-5 ovarian > 100 µM | OVCAR-8 ovarian 65.6 µM | PC-3 prostate > 100 µM | SF-268 CNS > 100 µM | SF-295 CNS 84.5 µM | SK-MEL-2 melanoma > 100 µM | SK-MEL-28 melanoma > 100 µM | SK-MEL-5 melanoma 39.4 µM | SK-OV-3 ovarian > 100 µM | SN12C renal 72.7 µM | SNB-19 CNS > 100 µM | SW-620 colon > 100 µM | T-47D breast 24.8 µM | TK-10 renal > 100 µM | U251 CNS > 100 µM | UACC-257 melanoma 63.3 µM | UACC-62 melanoma > 100 µM | UO-31 renal 9.08 µM
